Amino acid sequences for entries named in this document (tags omitted). Chains listed by the source or under a name are the forms on record and can include a tag or linker.
UniProt P01854, other isoform, or with tags, fused parts or gaps: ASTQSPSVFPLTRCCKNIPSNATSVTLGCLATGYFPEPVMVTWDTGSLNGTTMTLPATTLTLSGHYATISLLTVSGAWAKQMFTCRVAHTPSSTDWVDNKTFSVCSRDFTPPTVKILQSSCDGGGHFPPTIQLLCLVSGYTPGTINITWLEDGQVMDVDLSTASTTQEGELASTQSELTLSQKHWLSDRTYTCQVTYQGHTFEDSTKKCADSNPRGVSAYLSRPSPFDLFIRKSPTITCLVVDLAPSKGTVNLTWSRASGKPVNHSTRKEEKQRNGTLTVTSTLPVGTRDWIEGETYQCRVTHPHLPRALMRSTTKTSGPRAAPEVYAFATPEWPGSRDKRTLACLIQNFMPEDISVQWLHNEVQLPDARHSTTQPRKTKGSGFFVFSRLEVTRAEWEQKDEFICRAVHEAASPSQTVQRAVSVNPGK

In CN101062949A:

Molecular target: 人IgE (细胞系CRL-8033分泌表达) (human) (UniProt P01854)
Assay: cell-based or functional assay

Substance: Xolair (Omalizumab) (antibody)
- 加入Xolair后释放组胺浓度(ng/ml), 样品浓度0.25 μg/ml, 均数: 74.4 ng/mL
- 加入Xolair后释放组胺浓度(ng/ml), 样品浓度0.25 μg/ml, 孔1: 73.3 ng/mL
- 加入Xolair后释放组胺浓度(ng/ml), 样品浓度0.25 μg/ml, 孔2: 75.4 ng/mL
- 加入Xolair后释放组胺浓度(ng/ml), 样品浓度2.5 μg/ml, 均数: 69.4 ng/mL
- 加入Xolair后释放组胺浓度(ng/ml), 样品浓度2.5 μg/ml, 孔1: 68.6 ng/mL
- 加入Xolair后释放组胺浓度(ng/ml), 样品浓度2.5 μg/ml, 孔2: 70.1 ng/mL
- 加入Xolair后释放组胺浓度(ng/ml), 样品浓度25.00 μg/ml, 均数: 41.8 ng/mL
- 加入Xolair后释放组胺浓度(ng/ml), 样品浓度25.00 μg/ml, 孔1: 43.5 ng/mL
- 加入Xolair后释放组胺浓度(ng/ml), 样品浓度25.00 μg/ml, 孔2: 40.1 ng/mL
- 加入Xolair后释放组胺浓度(ng/ml), 样品浓度250.00 μg/ml, 均数: 12.5 ng/mL
- 加入Xolair后释放组胺浓度(ng/ml), 样品浓度250.00 μg/ml, 孔1: 13.2 ng/mL
- 加入Xolair后释放组胺浓度(ng/ml), 样品浓度250.00 μg/ml, 孔2: 11.7 ng/mL
- 加入Xolair后释放组胺浓度(ng/ml), 样品浓度2500.00 μg/ml, 均数: 11.9 ng/mL
- 加入Xolair后释放组胺浓度(ng/ml), 样品浓度2500.00 μg/ml, 孔1: 11.3 ng/mL
- 加入Xolair后释放组胺浓度(ng/ml), 样品浓度2500.00 μg/ml, 孔2: 12.5 ng/mL
